Experimental findings from US20240327433A1, “PYRIMIDOPYRAN COMPOUND” (Medshine Discovery Inc., priority 2021, published 2024) are described below.

Protein sequences, listed by entry. Tags and fused reporters are not part of them. Residues count along the entry.
UniProt P01116, 1-188 isoform 2 G12D limits assumed: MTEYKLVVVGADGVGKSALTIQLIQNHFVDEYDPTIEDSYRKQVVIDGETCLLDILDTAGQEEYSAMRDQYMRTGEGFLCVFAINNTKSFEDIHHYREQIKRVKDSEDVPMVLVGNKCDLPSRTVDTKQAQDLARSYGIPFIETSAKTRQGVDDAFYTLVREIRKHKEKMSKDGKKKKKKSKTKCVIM

The target of the experiment is KRAS^G12D (Homo sapiens (Human), UniProt P01116, G12D). As to the kind of experiment: Assay of activity of inhibiting KRAS^G12D (TR-FRET, SOS/GTP nucleotide exchange). How it is done:
20 mL of 1000 mM HEPES, 20 mL of 500 mM EDTA, 10 mL of 5 M sodium chloride, 0.1 mL of 100% Tween 20, and 949.9 mL of water were weighed and formulated to 1 L of solution. The solution was sterilized by filtration and stored at 4° C.
20 mL of 1000 mM HEPES, 10 mL of 1000 mM magnesium chloride, 30 mL of 5 M sodium chloride, 0.05 mL of 100% Tween 20, and 939.95 mL of water were weighed and formulated to 1 L of solution. The solution was sterilized by filtration and stored at 4° C.
9.5 μL of 95 μM KRAS^G12D protein and 440.5 μL of KRAS nucleotide exchange buffer were weighed and mixed. The mixture was incubated at room temperature for 1 hour, and then formulated to […] of solution together with 8.4 μL of 17.9 μM Tb-SA, 1.8 μL of 5 mM Bodipy GDP and 9539.8 μL of KRAS assay buffer. After mixing, the solution was left to stand at room temperature for 6 hours, and stored at −80° C. • b. Assay reagents:
73.3 μL of KRAS/Bodipy GDP/Tb-SA mixture and 2126.7 μL of KRAS assay buffer were weighed and formulated to 2200 μL of solution.
1.59 μL of 166 μM SOS protein, 198 μL of 100 mM GTP and 2000.41 μL of KRAS assay buffer were weighed and formulated to 2200 μL of solution.
• 1) The concentration of a stock solution of the control compound was 1 mM, and the concentration of a stock solution of compounds to be assayed was 10 mM. […]

Where two headings read alike, the source gives them in different places.

As to `Cc1cc(N)c(F)c(C2OCc3c(nc(OC[C@@]45CCCN4C[C@H](F)C5)nc3N3CC4CCC(C3)N4)C2C)c1C(F)(F)F` (some centres unmarked), under “read-out: KRAS^G12D IC50”, the IC50 amounted to 1.1 nM.
Turning to `Cc1cc(N)c(F)c(C2Cc3nc(OC[C@@]45CCCN4C[C@H](F)C5)nc(N4CC5CCC(C4)N5)c3C(C)O2)c1C(F)(F)F` (some centres unmarked), where the note is “read-out: KRAS^G12D IC50, tested form: formate”, the IC50 came out at 3.3 nM.
